Assay outcomes from PubChem BioAssay.
The list is not random: actives were taken first. Their share in the collection is about 2.5%.
miR-21 reporter: raises the signal of a miR-21 reporter | HeLa miR-21 FLuc reporter, luciferase, 48 h | Potency, µM (doses to about 38.3 µM) | 340,000 tested, under 10 active | AID 2288; active = well fitted rising curve with a large enough effect; inconclusive = small, poorly fitted or top-dose-only effect; inactive = no such curve, though single readings can be large or run the other way;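 also: miR-21 action dims this reporter so a rising signal means less miR-21 action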
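HeLa cells endogenously expressing miR-21, stably carrying CMV-driven firefly luciferase with a downstream miR-21 binding site, 2000 cells/well. Titrations up to approximately 40 uM, 48 hours; luciferase luminescence read.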
ClpP mod: qHTS Assay for Activators of ClpP. purified B. subtilis ClpP, FRET peptide cleavage, 20 min. Potency, µM (highest dose often 57.5 µM). ATP-dependent Clp protease proteolytic subunit (Bacillus subtilis (strain 168)), P80244. 340,000 tested, 1.9% active; active = well fitted falling curve with a large enough effect; inconclusive = small, poorly fitted or top-dose-only effect; inactive = no such curve, though single readings can be large or run the other way; note: the source files actives as falling curves though it sought activators and does not explain the sign; nearly all actives have a fitted effect of over 65% in size
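Purified B. subtilis ClpP, 10 microg/mL final in Tris/HCl pH8 with KCl, BSA, glycerol and Tween-20, cleaved an Abz/nitrotyrosine-quenched decapeptide. Fluorescence (ex 320, em 430) was read at 0 and 20 min at room temperature. Delta was normalized to 5.8 microM ADEP and DMSO/no-enzyme controls.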
TrxR1 substrate: rat thioredoxin reductase 1 substrate activity | O89049 | purified TrxR1 substrate turnover, NADPH consumption readout | 390,000 tested, 0.01% active | Potency, µM (doses to about 114 µM); note: nearly all actives have a fitted effect of over 50% in size
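Rat TrxR1, dispensed at 90 nM, was prereduced with 400 uM NADPH (final) for 5 min at ~22 deg C, then incubated with compound 15 min before 400 uM selenite. A first-read NADPH fluorescence drop versus no-compound background flagged substrates.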
Apoferritin bind: candidate novel general anesthetic via apoferritin binding. P02791. apoferritin/1-aminoanthracene competitive binding, fluorescence. Potency, µM (doses to about 77.5 µM), most hits filed as inhibitors. 350,000 tested, 0.074% active. AID 485281; note: nearly all actives have a fitted effect of over 20% in size
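Read-out: endpoint 1-AMA fluorescence, excitation 380 nm and emission 535 nm, after compounds sit 10 min at room temperature with 10 uM horse-spleen apoferritin in 50% saturated 1-AMA/PBS. Values come from four-parameter Hill fits.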
rTrxR1 inhibitor: rat TrxR1 inhibition. O89049. recombinant rTrxR1, NADPH fluorescence consumption, selenite substrate. Potency, µM (titrated, usually from 114 µM), most hits filed as inhibitors. 390,000 tested, 1% active; note: nearly all actives have a fitted effect of over 65% in size
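Rat TrxR1 (90 nM in the dispensed reagent) was pre-reduced with 400 uM NADPH for 5 min at room temperature, then incubated with compound for 15 min. After 400 uM selenite was added, NADPH fluorescence (Ex 340/Em 450 nm) was followed for 8 min.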
ClpP inh valid: Bacillus subtilis ClpP inhibition, validated hit. shares compounds with ClpP mod. AID 743245. purified B. subtilis ClpP, FRET-FV substrate cleavage, 20 min. Potency, µM (highest dose often 57.5 µM), most hits filed as inhibitors. 470 tested, 40% active; note: nearly all actives have a fitted effect of over 70% in size
Each line names hits and unclear results; the compound was inactive in the other large screens (follow-up assays come after a bar, where they were run). Unless noted, calls come from the whole dose curve; as a rule, active = well fitted curve in the direction sought with a large enough effect; inconclusive = small, poorly fitted or top-dose-only effect, or another doubt; inactive = no such curve, though single readings can be large; an effect the other way counts as inactive or inconclusive.

The chains behind the UniProt entries cited, without tags or fusion partners.
ATP-dependent Clp protease proteolytic subunit (Bacillus subtilis (strain 168)), P80244, UniProt P80244, whole entry, looked up: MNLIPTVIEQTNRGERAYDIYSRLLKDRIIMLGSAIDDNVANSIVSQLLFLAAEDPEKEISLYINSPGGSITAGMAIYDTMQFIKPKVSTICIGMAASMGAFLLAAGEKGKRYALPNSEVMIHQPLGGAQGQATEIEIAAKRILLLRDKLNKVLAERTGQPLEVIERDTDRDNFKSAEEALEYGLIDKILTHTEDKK

Cc1cc(OCC(=O)OCC(=O)NCc2ccc3c(c2)OCO3)ccc1Cl	none (no result: miR-21 reporter, Apoferritin bind)
Cc1cc(=O)oc2cc(OCC(=O)Nc3cccc(S(=O)(=O)N(C)C)c3)ccc12	none
Cc1cc(=O)oc2cc(OCC(=O)OCC(=O)Nc3ccc(C(N)=O)cc3)ccc12	none (no result: ClpP mod)
Cc1cc(=O)oc2cc(OCC(=O)OCC(=O)Nc3ccccc3C(C)C)ccc12	none | ClpP inh valid inconclusive
Cc1ccc(S(=O)(=O)N(C)C)cc1NC(=O)COC(=O)COc1ccc2c(C)cc(=O)oc2c1	none (no result: miR-21 reporter, Apoferritin bind) | ClpP inh valid inactive
Cc1ccnc(NS(=O)(=O)c2ccc(NC(=O)C(C)(C)Oc3ccc(Cl)cc3)cc2)n1	none
COc1ccc(C)cc1NC(=O)C(=O)NCC(c1cccnc1)N1CCc2ccccc21 (stereo not drawn)	none
CCOC(=O)c1cccc(NC(=O)CN2C(=O)CC(C)(C)Sc3ccccc32)c1	none
Cc1nc2oc3c(NCC4CCCO4)ncnc3c2c2c1COC(C)(C)C2 (stereo not drawn)	none
CC(C)c1nc2oc3c(NCC4CCCO4)ncnc3c2c2c1COC(C)(C)C2 (stereo not drawn)	ClpP mod 7.1µM | ClpP inh valid 22µM
CC(=O)Nc1ccc(-c2cc(C(=O)O)c3ccccc3n2)cc1	none
CC(=O)Nc1ccc2nc(-c3ccccc3)cn2c1	ClpP mod 3.5µM | ClpP inh valid 22µM
CC(=O)Nc1ccc(-c2cc(-c3ccc(NC(C)=O)cc3)nc(-c3ccccc3)n2)cc1	ClpP mod 7.9µM | ClpP inh valid 24µM
CC(=O)Nc1cccc(-c2cn3ccc(C)cc3n2)c1	none
COc1ccc(C#Cc2c(-c3ccsc3)oc3ccc(-c4cc(OC)c(OC)c(OC)c4)cc23)cc1	none (no result: miR-21 reporter, Apoferritin bind) | ClpP inh valid inconclusive
COc1ccc(-c2oc3ccc(-c4cc(OC)c(OC)c(OC)c4)cc3c2-c2ccc(OC)cc2)cc1	none (no result: miR-21 reporter, Apoferritin bind)
CCOC(=O)C1CCN(C(=O)C2CCN(c3nnc(C)c4c(C)n(-c5ccccc5)nc34)CC2)CC1	ClpP mod inconclusive
Cc1cc(C)n2nc(-c3sccc3-n3c(C)ccc3C)cc2n1	none | ClpP inh valid inconclusive
c1ccc2oc(-c3ccc(Nc4nc(N5CCCCC5)nc(N5CCOCC5)n4)cc3)nc2c1	none (no result: ClpP mod, TrxR1 substrate, rTrxR1 inhibitor)
COc1nc(Nc2ccc(-c3nc4ccccc4o3)cc2)nc(N2CCOCC2)n1	ClpP mod 8.9µM (no result: miR-21 reporter, Apoferritin bind) | ClpP inh valid 19µM
COc1ccc(C(C(=O)NC2CCCC2)N(C(=O)c2ccco2)c2cc3c(cc2C(C)=O)OCO3)cc1 (stereo not drawn)	ClpP mod 3.2µM | ClpP inh valid inactive
CC(=O)c1cc2c(cc1N(C(=O)c1ccco1)C(C(=O)NC1CCCC1)c1ccccc1F)OCO2 (stereo not drawn)	none
Cc1ccc(-n2c(-c3ccco3)nc3nc4ccccc4nc32)cc1F	ClpP mod 2.8µM | ClpP inh valid inconclusive
Fc1ccc(-n2c(-c3ccco3)nc3nc4ccccc4nc32)cc1	ClpP mod inconclusive
